Activity, K and fold change (FC) data for four compounds are collected here from ChEMBL document CHEMBL5385960, “Screening of efficient salicylaldoxime reactivators for DFP and paraoxon-inhibited acetylcholinesterase” (2024).

By UniProt entry, the sequences of proteins in these tests, tags left out. Where a name states a change or a piece, a line headed by the entry shows the natural chain unless it says otherwise.
UniProt P22303: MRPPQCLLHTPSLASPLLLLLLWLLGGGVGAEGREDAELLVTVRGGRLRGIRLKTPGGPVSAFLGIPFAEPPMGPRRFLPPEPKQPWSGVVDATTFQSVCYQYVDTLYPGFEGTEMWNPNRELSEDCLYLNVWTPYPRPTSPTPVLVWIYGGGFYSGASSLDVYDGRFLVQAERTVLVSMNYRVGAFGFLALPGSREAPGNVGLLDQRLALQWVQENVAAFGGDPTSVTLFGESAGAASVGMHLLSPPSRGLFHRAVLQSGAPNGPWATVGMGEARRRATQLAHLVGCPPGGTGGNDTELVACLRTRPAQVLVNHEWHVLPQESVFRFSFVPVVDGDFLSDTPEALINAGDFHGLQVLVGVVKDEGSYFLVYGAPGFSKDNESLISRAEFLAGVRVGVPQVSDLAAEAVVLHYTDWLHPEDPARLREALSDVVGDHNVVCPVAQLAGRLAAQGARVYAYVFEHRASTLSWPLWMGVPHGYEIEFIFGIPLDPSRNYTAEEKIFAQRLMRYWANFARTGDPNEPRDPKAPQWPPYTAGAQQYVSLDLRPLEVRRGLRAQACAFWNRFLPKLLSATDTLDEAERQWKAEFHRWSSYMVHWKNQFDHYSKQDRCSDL

Assay [1] concerns the target Acetylcholinesterase (Homo sapiens) (UniProt P22303). In words: Reactivation of paraoxon-inhibited human erythrocyte AChE using acetylthiocholine as substrate at 100 uM preincubated with paraoxon for 15 mins followed by compound addition for 30 mins and further incubated with substrate for 20 mins by DTNB based Ellman's method relative to control. The following applies: filed as activator, time 50.0 min. Also noted: scale not given: the % may be the effect or the level left. (In Ellman's method for cholinesterases, released thiocholine reacts with DTNB.)

Assay [2] has the same target. Briefly: Reactivation of DFP-inhibited human erythrocyte AChE using acetylthiocholine as substrate assessed as reactivation rate constant preincubated with DFP for 15 mins followed by compound and substrate addition and measured every 5 to 10 mins for 120 mins by DTNB based Ellman's method. Particulars: filed as activator.
Assay [3] has the same target. In words: Reactivation of DFP-inhibited human erythrocyte AChE using acetylthiocholine as substrate at 100 uM preincubated with DFP for 15 mins followed by compound addition for 30 mins and further incubated with substrate for 20 mins by DTNB based Ellman's method relative to control. The following applies: filed as activator, time 50.0 min. Also noted: scale not given: the % may be the effect or the level left.

The target is the same in assay [4]. Briefly: Reactivation of DFP-inhibited human erythrocyte AChE using acetylthiocholine as substrate at 10 uM preincubated with DFP for 15 mins followed by compound addition for 30 mins and further incubated with substrate for 20 mins by DTNB based Ellman's method relative to control. Also noted: scale not given: the % may be the effect or the level left. The following applies: filed as activator, time 50.0 min.

For assay [5] the target is unchanged. In words: Reactivation of paraoxon-inhibited human erythrocyte AChE using acetylthiocholine as substrate assessed as second order reactivation rate constant preincubated with paraoxon for 15 mins followed by compound and substrate addition and measured every 5 to 10 mins for 120 mins by DTNB based Ellman's …. The following applies: filed as activator.
The target is the same in assay [6]. Briefly: Reactivation of paraoxon-inhibited human erythrocyte AChE using acetylthiocholine as substrate at 10 uM preincubated with paraoxon for 15 mins followed by compound addition for 30 mins and further incubated with substrate for 20 mins by DTNB based Ellman's method relative to control. Also noted: scale not given: the % may be the effect or the level left. Particulars: filed as activator, time 50.0 min.

The target is the same in assay [7]. In words: Reactivation of paraoxon-inhibited human erythrocyte AChE using acetylthiocholine as substrate assessed as reactivation rate constant preincubated with paraoxon for 15 mins followed by compound and substrate addition and measured every 5 to 10 mins for 120 mins by DTNB based Ellman's method. The following applies: filed as activator.
Assay [8] has the same target. In words: Reactivation of DFP-inhibited human erythrocyte AChE using acetylthiocholine as substrate assessed as second order reactivation rate constant preincubated with DFP for 15 mins followed by compound and substrate addition and measured every 5 to 10 mins for 120 mins by DTNB based Ellman's method. Particulars: filed as activator.
For assay [9] the target is unchanged. In words: Reactivation of paraoxon-inhibited human erythrocyte AChE using acetylthiocholine as substrate assessed as fold change in second order reactivation rate constant preincubated with paraoxon for 15 mins followed by compound and substrate addition and measured every 5 to 10 mins for 120 mins by DTNB ….

Some results are limits rather than exact numbers.

For `O=[N+]([O-])c1ccc(N2CCN(Cc3cc(Cl)cc(/C=N/O)c3O)CC2)c(Cl)c1`, the Activity in assay [1] stood at 80.7%; in assay [3], 68.9%; in assay [4], 48.2%; in assay [6] it was 59.1%. In addition, the K in assay [2] was 12.2 10^-3/min; in assay [5], 110 M⁻¹ s⁻¹; in assay [7], 2.9 10^-3/min; in assay [8], 6.67 M⁻¹ s⁻¹.

Turning to `Cc1cc(/C=N/O)c(O)c(CN2CCN(c3ccc([N+](=O)[O-])cc3)CC2)c1`, the Activity in assay [1] came out at 97.4%; in assay [3], 80.8%; in [4] it was 58.7%; in assay [6], 79%. Besides, the K is 2.6 10^-3/min in assay [2], 409 M⁻¹ s⁻¹ in [5], 31.9 10^-3/min in assay [7] and 22.2 M⁻¹ s⁻¹ in assay [8]. Moreover, the fold change (FC) in assay [9] is > 2.

Consider `Cc1cc(/C=N/O)c(O)c(CN2CCN(c3ccc([N+](=O)[O-])cc3Cl)CC2)c1`, for which the Activity in [1] came to 77.6%; in assay [3], 59%; in [4] it was 41%; in [6] it was 53.9%. For the same compound, the K in assay [2] is 6.8 10^-3/min; in assay [5], 76 M⁻¹ s⁻¹; in assay [7], 12.3 10^-3/min; in assay [8], 6 M⁻¹ s⁻¹.

`Cc1cc(/C=N/O)c(O)c(CN2CCN(c3ccncc3)CC2)c1` returned an Activity in assay [1] of 94.9%. Moreover, the fold change (FC) in assay [9] (filed as activator) was determined as 5. Further, the K in assay [5] worked out at 914 M⁻¹ s⁻¹; in assay [8], 532 M⁻¹ s⁻¹.
